Measured values: patent US9212147B2, “Dihydroxy aromatic heterocyclic compound” (TAKEDA PHARMACEUTICAL COMPANY LIMITED, priority 2011, dated 2015)

Columns and labels:
[1] = test system: MK-801 (dizocilpine)-induced impaired spontaneous alternation behavior; conditions: male ddY mice, 0.03-0.1 mg/kg oral administration, MK-801 0.15 mg/kg i.p., Y-maze 8 min
[2] = biological target: recombinant human DAAO protein (Homo sapiens (Human), UniProt P14920); assay: DAAO inhibitory activity test (H2O2 production, Amplex red/HRP fluorescence); assay type: biochemical; conditions: recombinant human DAAO 15 nM, D-alanine substrate, FAD, pH 7.5
Procedure: The DAAO inhibitory activity was measured by assaying the amount of hydrogen peroxide (H2O2) produced by reacting DAAO protein with flavin adenine dinucleotide (FAD) and D-alanine. The amount of H2O2 was determined by measuring the fluorescence generated on conversion of Amplex red (manufactured by Invitrogen Co.) into resorufin by the reaction of H2O2 with horseradish peroxidase (HRP).
Escherichia coli strain BL21(DE3) (manufactured by Novagen) was transformed with the constructed human DAAO expression vector, inoculated into LB culture medium containing kanamycin at a final concentration of 20 μg/mL, and shake-cultured at 37° C. overnight. The multiplied transformant was inoculated into Terrific Broth containing kanamycin at a final concentration of 20 μg/mL, and shake-cultured at 37° C. until it reached OD600=3.0. Thereafter, the culture was cooled to 30° C., and expression was induced with 1 mM IPTG. After 20 hours, bacterial pellets were recovered by centrifugation.
The bacterial pellets recovered as above were suspended in a lysis buffer (17 mM sodium pyrophosphate buffer pH 8.3, 100 μM FAD, 1 mM sodium benzoate, 1 mM PMSF, 14 mM β-mercaptoethanol, 0.2 mg/mL lysozyme) and the bacteria were fractured by sonication. The sonicated liquid was centrifuged and the supernatant was recovered. To remove the nucleic acid, to this supernatant were sequentially added NaCl (final concentration 0.5M) and 0.05% ethyleneimine (polymer) and, after thorough mixing, the supernatant was recovered by centrifugation. The supernatant was heat treated at 55° C. for 15 min, and the supernatant was recovered by centrifugation. To this supernatant was added 40% saturated ammonium sulfate and, after thorough mixing, the salt precipitate was recovered by centrifugation. The obtained salt precipitate was redissolved in buffer A (50 mM potassium phosphate buffer pH 7.4, 10% glycerol, 200 μM sodium benzoate, 10 μM FAD, 20% saturated ammonium sulfate), and filtered through a 0.22 μm filter (manufactured by Millipore). […]

[3] = biological target: HEK293 cells that stably express human DAAO (Homo sapiens (Human), UniProt P14920); assay: Inhibitory activity test at cellular level using DAAO-expressing cells; assay type: cell-based; conditions: D-alanine substrate
Procedure: HEK293 cells that stably express human DAAO were suspended in Cellbanker solution at 5×10^6 cells/ml and cryopreserved at −80° C. At the time of measurement, the cells were centrifuged at 1000 rpm for one min and the Cellbanker solution was removed. […] A 4% DMSO buffer solution (50 mM sodium phosphate [pH 7.5], 0.02% CHAPS) of the test compound (4 μL) was added to a 384-well black, low volume plate, the cell suspension (4 μL) was added, and the mixture was incubated at room temperature for 15 min.
Reverse transcription was performed on human normal kidney tissue-derived RNA (Clontech Corp.) using reverse transcriptase (SuperScriptIII, Life Technologies Corporation) and oligo (dT) primer (Life Technologies Corporation) according to the protocol of the kit (Life Technologies Corporation) and cDNA was synthesized. Then, using human DAAO_HindIII_F represented by Sequence No. 1 and human DAAO_BamHI_R represented by Sequence No. 2, a PCR reaction (35 cycles of 98° C. for 15 sec, 55° C. for 15 sec and 68° C. for 1 min 30 sec) was performed using DNA polymerase (PrimeSTAR, TAKARA BIO INC.) and cDNA obtained as above as a template. […] The PCR product was cloned in a cloning vector (pCR2.1-TOPO Cloning Kit, Life Technologies Corporation). The sequence of the insert was determined by the dideoxy sequence method (BigDye Terminator v3.1 Cycle Sequencing Kit; Life Technologies Corporation).
To express the ORF full length of DAAO as a protein, the above-mentioned vector was subjected to an enzyme reaction with restriction enzymes HindIII and BamHI at 37° C. for 3 hr, and the restriction enzyme-treated DNA fragment was purified. The DNA fragment containing the ORF was cloned to HindIII and BamHI sites present in the multiple cloning site of the expression vector (pcDNA3.1(+): Invitrogen Co.), whereby an expression plasmid (hDAAO/pcDNA3.1) was constructed.
Then, HEK293 cells were transfected to obtain the forced expression cell line. […]

| SMILES | spontaneous alternation rate relative to the Control group [1] | IC50 [2] [nM] | IC50 [3] [nM] |
| --- | --- | --- | --- |
| O=c1[nH]nc(CCc2cc(F)cc(F)c2)cc1O [Example 24, 6-[2-(3,5-difluorophenyl)ethyl]-4-hydroxypyridazin-3(2H)-one] | significantly increased | – | – |
| COc1cc(CCc2cc(O)c(=O)[nH]n2)cc(OC)c1 [Example 23] | – | 13 | 25 |
| COc1cccc(CCc2cc(O)c(=O)[nH]n2)c1 [Example 16] | – | 2.1 | 8.8 |
| COc1ccc(CCc2cc(O)c(=O)[nH]n2)cc1 [Example 14] | – | 2.9 | 10 |
